Values quoted from earlier work as cited in PMC9871032 (2023).
pKd: −log10 of the molar value.

Protein sequences, listed by entry. Tags and fused reporters are not part of them. Residues count along the entry.
UniProt P01589, 22-240, chain 1 of 3: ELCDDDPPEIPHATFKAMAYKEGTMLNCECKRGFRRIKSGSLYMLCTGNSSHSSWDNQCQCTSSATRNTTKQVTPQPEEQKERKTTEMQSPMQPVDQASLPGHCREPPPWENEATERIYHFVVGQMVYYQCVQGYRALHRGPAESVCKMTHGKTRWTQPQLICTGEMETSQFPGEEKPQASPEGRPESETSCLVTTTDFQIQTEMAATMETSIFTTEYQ

Target: trimeric IL-2 receptor (Homo sapiens) (UniProt P01589)
Details: cited from earlier work

## IL-2 (from UniProt P60568)
  pKd: 11.00
